From patent US6979572B1, “Compositions and methods for inhibiting inward-rectifier potassium channels” (Trustees of the University of Pennsylvania, priority 1998, dated 2005)

Sequences of proteins named here, by UniProt entry; tags and fusion partners are left off. A change or cut given only in a name is not applied to a line headed by its entry.
UniProt P35561: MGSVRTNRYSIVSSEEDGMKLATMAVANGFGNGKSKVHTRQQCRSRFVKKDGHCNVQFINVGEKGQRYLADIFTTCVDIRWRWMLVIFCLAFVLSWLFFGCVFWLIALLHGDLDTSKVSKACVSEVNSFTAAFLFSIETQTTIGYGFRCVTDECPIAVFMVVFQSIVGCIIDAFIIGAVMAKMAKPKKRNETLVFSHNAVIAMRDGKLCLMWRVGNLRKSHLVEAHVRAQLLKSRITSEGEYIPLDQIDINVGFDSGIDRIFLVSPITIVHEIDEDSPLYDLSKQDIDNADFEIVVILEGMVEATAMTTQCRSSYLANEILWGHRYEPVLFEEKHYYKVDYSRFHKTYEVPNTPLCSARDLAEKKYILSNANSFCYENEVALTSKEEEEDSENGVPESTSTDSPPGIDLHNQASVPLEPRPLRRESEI

Experiments:
[1] = test system: uninjected oocytes; test: Currents in uninjected oocytes; type: cell-based, Xenopus laevis
Description: (§1) Oocytes harvested from Xenopus laevis frogs were digested with collagenase (2 mg/mL) in a solution containing: NaCl, 82.5 mM; KCl, 2.5 mM; MgCl2, 1.0 mM; HEPES, 5.0 mM (pH 7.6) and were agitated on a platform shaker at a rate of 80 rpm for 90 minutes. The oocytes were then rinsed thoroughly with and stored in a solution containing: gentamicin, 50 μg/mL; NaCl, 96 mM; KCl, 2 mM; CaCl2, 1.8 mM; MgCl, 1 mM; HEPES, 5 mM (pH 7.6). Defolliculated oocytes were selected at least 2 hours after the collagenase digestion. To express channels, the corresponding cRNA was directly injected into oocytes. To express the GIRK1/4 channel, GIRK1 and GIRK4 cRNAs were co-injected with either M2 or M4 receptor cRNA. All injections were carried out at least 16 hours after the collagenase treatment. The injected oocytes were stored in an 18° C. incubator.
(§2) All three inward-rectifier K^+ channels, GIRK1/4, ROMK1, and IRK1, were studied using a two-electrode voltage clamp amplifier (Oocyte Clamp OC-725C, Warner Instruments Corp.). The resistance of electrodes filled with 3 M KCl were 0.2–0.4 M Ω. To elicit current through the channel, the membrane potential of oocytes was stepped to −80 mV (100–125 ms) and then to +80 mV (100–125 ms) from the holding potential of 0 mV. […] Tertiapin concentration was calculated using an extinction coefficient 6.1 mM^−1 cm^−1 at 280 nm wavelength. […]

[2] = target: T1, ROMK1 I142L channel (Rattus norvegicus, UniProt P35560, I142L); test: Two-electrode voltage clamp of ROMK1 mutant I142L; type: cell-based; conditions: relative to wild-type ROMK1
T1 construct: expressed in transfected cells; host or cells: Xenopus laevis oocytes (cRNA injection)
T1 sequence (P35560 1-391 I142L): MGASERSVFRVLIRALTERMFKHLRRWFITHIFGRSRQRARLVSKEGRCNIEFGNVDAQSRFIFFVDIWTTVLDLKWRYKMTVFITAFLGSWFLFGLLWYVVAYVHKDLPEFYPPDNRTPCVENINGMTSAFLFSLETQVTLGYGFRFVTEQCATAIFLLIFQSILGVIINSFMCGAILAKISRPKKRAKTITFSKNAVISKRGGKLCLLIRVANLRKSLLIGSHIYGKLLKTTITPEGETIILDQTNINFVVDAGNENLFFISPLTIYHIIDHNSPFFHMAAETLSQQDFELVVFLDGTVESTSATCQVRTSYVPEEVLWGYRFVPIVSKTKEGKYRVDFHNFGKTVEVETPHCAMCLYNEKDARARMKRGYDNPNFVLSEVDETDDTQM
Excerpt: However, contrary to what has been found for Lq2, a channel mutation, I142L, lowers the affinity of the ROMK1 channel for tertiapin by 8-fold. Residue 142 is located within the signature sequence that forms the K^+-selective part of the pore. The different effects of mutation I142L on the binding of the two toxins may be a consequence of tertiapin contacting the base of the vestibule more intimately than Lq2, which would also explain why tertiapin binds to the channel with a 200-fold higher affinity than Lq2.
as §1, with “To express the GIRK1/4 channel, GIRK1 and GIRK4 cRNAs were co-injected with either M2 or M4 receptor cRNA. All injections were carried out at least 16 hours after the collagenase treatment. The injected oocytes were stored in an 18° C. incubator.” left out
All three inward-rectifier K^+ channels, GIRK1/4, ROMK1, and IRK1, were studied using a two-electrode voltage clamp amplifier (Oocyte Clamp OC-725C, Warner Instruments Corp.). […] Tertiapin concentration was calculated using an extinction coefficient 6.1 mM^−1 cm^−1 at 280 nm wavelength. […]

[3] = Oxidation of residue 13 by air (HPLC); type: physicochemical
Excerpt: Instability of tertiapin can limit its utility in such screening assays. Methionine residue 13 in tertiapin interacts with residue F148 in the channel located just outside of the narrow region of the ROMK1 pore. […] Accordingly, to overcome the oxidation problem, M13 in tertiapin was replaced with fourteen different non-oxidizable residues. […] This derivative is referred to herein as TPNQ and depicted as SEQ ID NO:2.
Oxidation of M13 altered both the chromatographic behavior and the inhibitory activity of tertiapin. The oxidized form of tertiapin was eluted at a lower percentage of organic phase than the nonoxidized form. […] Therefore, tertiapin samples were examined daily using HPLC both before and after experiments. Only tertiapin samples containing less than 1% oxidized tertiapin, which was determined from the areas of absorbance peaks on HPLC, were used.

[4] = target: T2, IRK1 channel (Mus musculus, UniProt P35561); test: Two-electrode voltage clamp of IRK1 channel in Xenopus oocytes; type: cell-based
T2 construct: expressed in transfected cells; host or cells: Xenopus laevis oocytes (cRNA injection)
Description: as §1, §2

[5] = target: T3, ROMK1 channel (Rattus norvegicus, UniProt P35560); test: Two-electrode voltage clamp of wild-type ROMK1 channel in Xenopus oocytes; type: cell-based
T3 construct: expressed in transfected cells; host or cells: Xenopus laevis oocytes (cRNA injection)
T3 sequence (P35560 1-391): T1 sequence (P35560 1-391 I142L) with L142I
Description: as §1
All three inward-rectifier K^+ channels, GIRK1/4, ROMK1, and IRK1, were studied using a two-electrode voltage clamp amplifier (Oocyte Clamp OC-725C, Warner Instruments Corp.). The resistance of electrodes filled with 3 M KCl were 0.2–0.4 M Ω. To elicit current through the channel, the membrane potential of oocytes was stepped to −80 mV (100–125 ms) and then to +80 mV (100–125 ms) from the holding potential of 0 mV. Background leak currents were obtained by exposing oocytes to solutions containing tertiapin at concentrations greater than 100 fold of Kd. […] The bath solution contained KCl, 100 mM; CaCl, 0.3 mM; MgCl2, 1.0 mM; and HEPES, 10 mM (pH 7.6). To activate the GIRK1/4 channel, ACh (150 μM) was included in the bath solution. Tertiapin concentration was calculated using an extinction coefficient 6.1 mM^−1 cm^−1 at 280 nm wavelength. All toxin-containing solutions were freshly made by diluting stock solutions. Unless specified otherwise, tertiapin used in all experiments were made synthetically as described in Example 6. All other toxins were either recombinant toxins or purchased from Alomone Labs (Jerusalem, Israel). […]

SMILES: CC[C@H](C)[C@@H]1NC(=O)[C@H](CCCNC(=N)N)NC(=O)[C@H](CC(N)=O)NC(=O)[C@@H]2CSSC[C@@H](C(=O)NCC(=O)N[C@@H](CCCCN)C(=O)N[C@@H](CCCCN)C(N)=O)NC(=O)[C@H](CCCCN)NC(=O)[C@H](CCCCN)NC(=O)[C@H](Cc3c[nH]c4ccccc34)NC(=O)[C@H](CSSC[C@H](NC(=O)[C@H](CC(C)C)NC(=O)[C@H](C)N)C(=O)N[C@@H](CC(N)=O)C(=O)N2)NC(=O)[C@H](CCSC)NC(=O)[C@H](Cc2c[nH]cn2)NC(=O)[C@@H]2CCCN2C(=O)[C@H]([C@@H](C)CC)NC(=O)[C@H]([C@@H](C)CC)NC1=O [tertiapin]
- effect on the currents in uninjected oocytes [1]: did not affect the currents
- lowering of ROMK1 affinity by mutation I142L [2]: 8 fold
- oxidation by air [3]: oxidized by air; also recorded: may become oxidized spontaneously
- sensitivity of the IRK1 channel, in words [4]: relatively insensitive
- sensitivity of the IRK1 channel ([4]; at a concentration of 2 μM): insensitive
- affinity for the ROMK1 channel, fold higher than Lq2 ([5]; relative to Lq2): 200 fold
- fraction of current through the ROMK1 channel inhibited ([5]; tertiapin and TPNQ at similar concentrations): about half
- sensitivity / affinity of the ROMK1 channel, in words ([5]; wild-type ROMK1): highly sensitive; also recorded: very sensitive

Positions count from the first letter of the chain named. “Also recorded” adds a separate entry of the source.
